Measured values: patent EP3409671B1, “ISOTHIAZOLE DERIVATIVES AS GPR120 AGONISTS FOR THE TREATMENT OF TYPE II DIABETES” (Janssen Pharmaceutica NV, priority 2014, dated 2015)

Columns and labels:
C57b1/6J Mice = assay: GPR120 C57bl6 Mouse IPGTT; set-up: unit not given here; details: 10mg/kg dosed 30 minutes prior to glucose IP 1.5g/kg
Method: (§1) Male, C57b1/6J Mice were ordered in at 8 weeks of age from Jackson Labs. Individual mice weighed anywhere in the range of 25-30 grams on study day. The mice were fasted, with removal of food occurring at 7am on the morning of the study. Animals were moved into the room at 10:00am, to give them time to acclimate. Glucose (insulin syringes) was drawn up either the night before or the morning of the study. Glucose was dosed (IP) at 1.5g/kg at 7.5ml/kg (20% glucose straight TEKNOVA, 250ml sterile bottle w/ catalogue number G0525). Test compounds were kept spinning and were only drawn into the syringes prior to study commencement. Animals were bled via tail snip to determine basal glucose levels prior to dosing of treatments. An Ascensia BREEZE Blood Glucose Monitoring System by Bayer (using unique 10-test disks) was used for determining glucose levels. The bleeds started at approximately 12:45pm and dosing started, at 1-minute intervals, immediately after. All groups were dosed 30 minutes prior to glucose administration at a dose volume of 10ml/kg (the dose volume was calculated separately for each individual animal). Thirty minutes after the first dose animals were bled again for a second baseline, or T=0, and immediately dosed with glucose via an i.p. injection. The exact dose volume for glucose was also calculated separately for each individual animal. […]

C57bl6 mouse = C57bl6 mouse OGTT; details: 3mg/kg dosed 30 minutes prior to glucose PO 3g/kg
Method: as §1

`OCCCc1cc(F)c(OCc2c(Cl)nsc2-c2ccc(Cl)cc2)c(F)c1` was tested, and the “C57 IPGTT 10mg/kg” value (C57b1/6J Mice) was -41 and the “C57 OGTT 3mg/kg” value (C57bl6 mouse) was -39.
